Laboratory results: ChEMBL document CHEMBL1126394, “Synthesis of 1-(2-Indolyl)pyridinium salts: a prodrug approach to acetylcholinesterase inhibition” (Bioorg Med Chem Lett, 1992)

By UniProt entry, the sequences of proteins in these tests, tags left out. Where a name states a change or a piece, a line headed by the entry shows the natural chain unless it says otherwise.
UniProt O42275: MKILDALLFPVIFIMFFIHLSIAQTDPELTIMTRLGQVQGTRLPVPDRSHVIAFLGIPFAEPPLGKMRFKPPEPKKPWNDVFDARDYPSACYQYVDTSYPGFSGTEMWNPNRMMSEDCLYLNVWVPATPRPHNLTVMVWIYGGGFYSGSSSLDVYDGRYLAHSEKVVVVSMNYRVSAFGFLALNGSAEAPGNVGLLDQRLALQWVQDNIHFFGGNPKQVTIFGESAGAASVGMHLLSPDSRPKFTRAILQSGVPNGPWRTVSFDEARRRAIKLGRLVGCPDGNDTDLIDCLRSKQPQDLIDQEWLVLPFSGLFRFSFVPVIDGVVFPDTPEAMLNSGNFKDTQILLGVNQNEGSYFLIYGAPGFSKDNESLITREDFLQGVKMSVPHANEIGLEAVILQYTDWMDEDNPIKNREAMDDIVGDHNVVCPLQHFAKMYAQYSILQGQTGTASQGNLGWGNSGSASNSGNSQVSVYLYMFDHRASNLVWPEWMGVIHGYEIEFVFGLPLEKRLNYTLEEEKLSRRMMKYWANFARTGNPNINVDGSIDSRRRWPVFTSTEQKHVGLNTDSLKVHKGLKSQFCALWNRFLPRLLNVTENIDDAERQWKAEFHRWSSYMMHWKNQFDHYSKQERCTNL

Target: Acetylcholinesterase (Electrophorus electricus, UniProt O42275)
Test: Inhibitory activity against acetylcholinesterase as a prodrug was demonstarted

Structure (SMILES): CNC(=O)Oc1ccc2c(c1)[C@]1(C)CCN(C)[C@@H]1N2C [PHYSOSTIGMINE]
- pIC50: 9.00

pIC50: −log10 of the molar value.
